Each structure is given as a SMILES string.

Chains of the proteins cited; added tags and fusions are not shown. Lines headed by an entry give the natural chain unless they say otherwise; changes in a name come on top.
UniProt P28845: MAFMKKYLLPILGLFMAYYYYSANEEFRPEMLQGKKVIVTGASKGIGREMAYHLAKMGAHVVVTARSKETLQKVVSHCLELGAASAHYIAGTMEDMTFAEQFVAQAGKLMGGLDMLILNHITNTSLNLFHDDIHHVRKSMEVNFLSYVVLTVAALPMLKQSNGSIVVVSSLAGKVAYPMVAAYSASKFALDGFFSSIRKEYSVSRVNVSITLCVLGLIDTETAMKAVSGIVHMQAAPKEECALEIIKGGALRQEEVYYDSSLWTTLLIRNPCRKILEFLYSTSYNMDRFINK

We go through one compound from patent publication US10039772B2, “Methods and compositions for treating alcohol use disorders” (priority 2015, dated 2018).

The target in this experiment is human 11β-HSD1 (Homo sapiens, UniProt P28845). In words: HTRF assay, human 11β-HSD1. It is filed as biochemical. (In general: TR-FRET usually uses a lanthanide donor and a delayed reading to cut background.)

Take `CC1(C)[C@@H](OC(=O)CCC(=O)O)CC[C@]2(C)[C@H]3C(=O)C=C4[C@@H]5C[C@@](C)(C(=O)O)CC[C@]5(C)CC[C@@]4(C)[C@]3(C)CC[C@@H]12`: the IC50 is 15.9 µM.

In general, IC50 refers to the point on the concentration scale where inhibition reaches its midpoint. Read a high IC50 as weaker potency in that assay.
